Source: PMC9676650, “Binding pocket stabilization by high-throughput screening of yeast display libraries” (Frontiers in Molecular Biosciences, 2022)

The chains behind the UniProt entries cited, without tags or fusion partners. Where a name states a change or a piece, a line headed by the entry shows the natural chain unless it says otherwise. Residues count along the entry.
UniProt Q13451, 1-140 limits assumed: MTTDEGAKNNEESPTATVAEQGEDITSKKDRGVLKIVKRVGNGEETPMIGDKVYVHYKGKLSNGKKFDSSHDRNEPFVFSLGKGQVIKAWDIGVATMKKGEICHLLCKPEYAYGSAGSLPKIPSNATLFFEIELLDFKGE
UniProt Q13451, 1-140 D68Y limits assumed: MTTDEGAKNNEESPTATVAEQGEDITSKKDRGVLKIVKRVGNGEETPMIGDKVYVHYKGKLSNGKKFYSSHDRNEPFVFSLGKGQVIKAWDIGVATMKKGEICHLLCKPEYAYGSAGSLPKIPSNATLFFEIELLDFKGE
UniProt Q13451, 1-140 G64S limits assumed: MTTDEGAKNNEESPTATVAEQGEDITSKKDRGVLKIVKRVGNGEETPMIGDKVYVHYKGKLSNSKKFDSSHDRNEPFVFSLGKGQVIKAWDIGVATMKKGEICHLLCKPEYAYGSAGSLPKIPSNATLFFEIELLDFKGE

Columns and labels:
FKBP51 variant G64S = FKBP51 variant G64S (Homo sapiens, UniProt Q13451, G64S); experiment: Competitive fluorescence polarization assay, FKBP51 G64S; conditions: read-out: Kd-value (ligand binding constant, competitive fluorescence polarization); 10-40 nM FKBP51 G64S; 1 nM FK [431]-TA tracer; 30 min room temperature; fitted as KI in competitive binding model
Text: (§1) All ligands and tracers used for fluorescence polarization assays had purities of more than 95%. The following ligands and tracers were used for fluorescence polarization and FACS screening experiments: •SAFit-FL tracer (1): Fluorescein conjugated analog of the iFit ligand class. •Mcyc-TA tracer (2): TAMRA conjugated macrocyclic ligand (5). •FK [431]-TA tracer (3): TAMRA conjugated FK [431] ligand (6). •SAFit1 ligand (4): analog of the iFit ligand class. •macrocyclic ligand (5):macrocyclic analog of the SAFit class ligands. •FK [431] ligand (6):bicyclic analog of the immunosuppressive drug FK506
(§2) In order to rule out artifacts introduced by the fluorophore of the tracers, competitive fluorescence polarization assays were carried out. Therefore, a serial dilution of an FK [431] ligand (6), SAFit1 (4), or a macrocyclic ligand 5) (Supplementary Figure S8) in assay buffer was placed in a 384-well assay plate. To the compounds, a mixture of the respective protein (20 nM WT, 10–40 nM G64S or 80–100 nM D68Y) and 1 nM of the FK [431]-TA in assay buffer was added. After incubating for 30 min at room temperature, the fluorescence polarization was measured. […]

FKBP51 WT = FKBP51 WT (Homo sapiens, UniProt Q13451); experiment: Competitive fluorescence polarization assay, FKBP51 WT; conditions: read-out: Kd-value (ligand binding constant, competitive fluorescence polarization); 20 nM FKBP51 WT; 1 nM FK [431]-TA tracer; 30 min room temperature; fitted as KI in competitive binding model
Text: as §1, §2

FKBP51 variant D68Y = FKBP51 variant D68Y (Homo sapiens, UniProt Q13451, D68Y); experiment: Competitive fluorescence polarization assay, FKBP51 D68Y; conditions: read-out: Kd-value (ligand binding constant, competitive fluorescence polarization); 80-100 nM FKBP51 D68Y; 1 nM FK [431]-TA tracer; 30 min room temperature; fitted as KI in competitive binding model
Text: as §1, §2

FKBP51 F67V variant = conditions: ref Jagtap et al., 2019; cited from earlier work
FKBP51 F67Y variant = conditions: ref Jagtap et al., 2019; cited from earlier work

| SMILES | Kd (FKBP51 variant G64S) | Kd (FKBP51 WT) | Kd (FKBP51 variant D68Y) | Kd value compared to the WT (FKBP51 F67V variant) | binding affinity compared to the WT (FKBP51 F67Y variant) |
| --- | --- | --- | --- | --- | --- |
| COc1ccc(CC[C@H]2OC(=O)[C@@H]3CCCCN3C(=O)[C@@H](C3CCCCC3)NC(=O)C(C)(C)N(C)C(=O)COc3cccc2c3)cc1OC | 29 nM | 780 nM | 10 nM |  |  |
| O=C1[C@@H]2CCC[C@H]([C@@H](CO)CN1Cc1ccccn1)N2S(=O)(=O)c1cc(Cl)cc(Cl)c1 | 56 nM | 27 nM | 126 nM | slight improvement of the Kd value | decrease in its binding affinity |
